Measurements: patent publication US6811998B2, “Conjugates of uncompetitive inhibitors of inosine monophosphate dehydrogenase” (priority 1999, dated 2004)

Assays:
[1] = biological target: T1, IMPDH II (Homo sapiens, UniProt P12268); assay: IMPDH activity as a function of ligand-inhibitor conjugate, antibody and analyte concentration (HITACHI 717, NADH at 340 nm)
[2] = biological target: T1, IMPDH II; assay: Inhibition constants of ligand inhibitors: NADH formation at 340 nm, 10 minutes, 40° C.; assay type: biochemical; settings: IMPDH II 0.00065 U/ml, non-linear curve fit

COc1c(C)c2c(c(O)c1C/C=C(\C)CC(C/C(C)=C/Cc1c(O)c3c(c(C)c1OC)COC3=O)C(=O)O)C(=O)OC2 (stereo not shown)
ΔA × 10^−4 @ 340 nm ([1]; set B: MPA—MPA in enzyme reagent, no anti-MPA, sample MPA 0 μg/ml): 1666 × 10^−4
ΔA × 10^−4 @ 340 nm ([1]; set B: MPA—MPA in enzyme reagent, no anti-MPA, sample MPA 5 μg/ml): 557 × 10^−4
ΔA × 10^−4 @ 340 nm ([1]; set B: MPA—MPA in enzyme reagent, no anti-MPA, sample MPA 10 μg/ml): 214 × 10^−4
ΔA × 10^−4 @ 340 nm ([1]; set C: MPA—MPA, anti-MPA 1:100, sample MPA 0 μg/ml): 3109 × 10^−4
ΔA × 10^−4 @ 340 nm ([1]; set C: MPA—MPA, anti-MPA 1:100, sample MPA 5 μg/ml): 2671 × 10^−4
ΔA × 10^−4 @ 340 nm ([1]; set C: MPA—MPA, anti-MPA 1:100, sample MPA 10 μg/ml): 2135 × 10^−4
ΔA × 10^−4 @ 340 nm ([1]; set D: MPA—MPA, anti-MPA 1:1000, sample MPA 0 μg/ml): 1957 × 10^−4
ΔA × 10^−4 @ 340 nm ([1]; set D: MPA—MPA, anti-MPA 1:1000, sample MPA 5 μg/ml): 804 × 10^−4
ΔA × 10^−4 @ 340 nm ([1]; set D: MPA—MPA, anti-MPA 1:1000, sample MPA 10 μg/ml): 304 × 10^−4
IC50 [2]: 32 nM
